Two molecules from publication PMC9837035 (Nature Communications, 2023) can be followed below.

Values joined by “and” are separate entries in the source; they are usually repeats but may differ in a detail not shown here. Equal entries are not always repeated.

For one data set, the target named is T1, G9a (Homo sapiens, UniProt Q96KQ7).
T1 sequence (Q96KQ7 1-1210): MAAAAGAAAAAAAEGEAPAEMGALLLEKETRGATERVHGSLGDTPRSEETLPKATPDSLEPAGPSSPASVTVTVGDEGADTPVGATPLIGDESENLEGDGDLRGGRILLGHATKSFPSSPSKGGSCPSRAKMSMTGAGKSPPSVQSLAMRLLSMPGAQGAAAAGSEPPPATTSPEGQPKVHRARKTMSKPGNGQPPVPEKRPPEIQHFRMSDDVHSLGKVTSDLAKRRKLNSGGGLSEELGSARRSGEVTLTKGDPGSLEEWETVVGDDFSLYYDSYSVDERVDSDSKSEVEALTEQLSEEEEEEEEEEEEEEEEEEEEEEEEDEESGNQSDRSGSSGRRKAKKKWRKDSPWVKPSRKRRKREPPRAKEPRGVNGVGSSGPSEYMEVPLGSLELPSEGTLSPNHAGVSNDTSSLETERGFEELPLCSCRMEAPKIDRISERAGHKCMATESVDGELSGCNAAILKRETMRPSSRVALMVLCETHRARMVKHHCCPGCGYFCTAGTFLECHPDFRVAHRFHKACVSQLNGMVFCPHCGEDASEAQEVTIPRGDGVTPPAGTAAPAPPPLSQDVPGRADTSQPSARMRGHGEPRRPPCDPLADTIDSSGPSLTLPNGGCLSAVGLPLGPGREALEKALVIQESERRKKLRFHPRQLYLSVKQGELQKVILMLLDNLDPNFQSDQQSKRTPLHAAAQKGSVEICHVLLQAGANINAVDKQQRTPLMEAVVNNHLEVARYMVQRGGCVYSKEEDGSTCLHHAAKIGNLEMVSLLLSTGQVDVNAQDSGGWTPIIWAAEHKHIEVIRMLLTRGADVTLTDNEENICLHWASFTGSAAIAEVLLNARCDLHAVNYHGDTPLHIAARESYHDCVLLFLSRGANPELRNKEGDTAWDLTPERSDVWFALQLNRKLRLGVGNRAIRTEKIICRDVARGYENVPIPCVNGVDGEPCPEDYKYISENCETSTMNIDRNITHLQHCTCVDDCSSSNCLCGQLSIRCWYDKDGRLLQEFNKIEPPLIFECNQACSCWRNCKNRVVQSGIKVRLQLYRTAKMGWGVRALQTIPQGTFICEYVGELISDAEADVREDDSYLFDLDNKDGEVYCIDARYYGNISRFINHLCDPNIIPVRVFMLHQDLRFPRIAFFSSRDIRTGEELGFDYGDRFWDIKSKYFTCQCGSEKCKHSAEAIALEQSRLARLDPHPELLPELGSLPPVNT
Briefly: Radioisotope-based methyltransferase assay (selectivity).

The nature of data set [1]: Hematological and hepatic parameters, 2-week repeated oral dosing. The data set is classed as in vivo. Particulars: rats.
A further data set has as its target T2, NSD2 (Homo sapiens, UniProt O96028).
T2 sequence (O96028 1-1365): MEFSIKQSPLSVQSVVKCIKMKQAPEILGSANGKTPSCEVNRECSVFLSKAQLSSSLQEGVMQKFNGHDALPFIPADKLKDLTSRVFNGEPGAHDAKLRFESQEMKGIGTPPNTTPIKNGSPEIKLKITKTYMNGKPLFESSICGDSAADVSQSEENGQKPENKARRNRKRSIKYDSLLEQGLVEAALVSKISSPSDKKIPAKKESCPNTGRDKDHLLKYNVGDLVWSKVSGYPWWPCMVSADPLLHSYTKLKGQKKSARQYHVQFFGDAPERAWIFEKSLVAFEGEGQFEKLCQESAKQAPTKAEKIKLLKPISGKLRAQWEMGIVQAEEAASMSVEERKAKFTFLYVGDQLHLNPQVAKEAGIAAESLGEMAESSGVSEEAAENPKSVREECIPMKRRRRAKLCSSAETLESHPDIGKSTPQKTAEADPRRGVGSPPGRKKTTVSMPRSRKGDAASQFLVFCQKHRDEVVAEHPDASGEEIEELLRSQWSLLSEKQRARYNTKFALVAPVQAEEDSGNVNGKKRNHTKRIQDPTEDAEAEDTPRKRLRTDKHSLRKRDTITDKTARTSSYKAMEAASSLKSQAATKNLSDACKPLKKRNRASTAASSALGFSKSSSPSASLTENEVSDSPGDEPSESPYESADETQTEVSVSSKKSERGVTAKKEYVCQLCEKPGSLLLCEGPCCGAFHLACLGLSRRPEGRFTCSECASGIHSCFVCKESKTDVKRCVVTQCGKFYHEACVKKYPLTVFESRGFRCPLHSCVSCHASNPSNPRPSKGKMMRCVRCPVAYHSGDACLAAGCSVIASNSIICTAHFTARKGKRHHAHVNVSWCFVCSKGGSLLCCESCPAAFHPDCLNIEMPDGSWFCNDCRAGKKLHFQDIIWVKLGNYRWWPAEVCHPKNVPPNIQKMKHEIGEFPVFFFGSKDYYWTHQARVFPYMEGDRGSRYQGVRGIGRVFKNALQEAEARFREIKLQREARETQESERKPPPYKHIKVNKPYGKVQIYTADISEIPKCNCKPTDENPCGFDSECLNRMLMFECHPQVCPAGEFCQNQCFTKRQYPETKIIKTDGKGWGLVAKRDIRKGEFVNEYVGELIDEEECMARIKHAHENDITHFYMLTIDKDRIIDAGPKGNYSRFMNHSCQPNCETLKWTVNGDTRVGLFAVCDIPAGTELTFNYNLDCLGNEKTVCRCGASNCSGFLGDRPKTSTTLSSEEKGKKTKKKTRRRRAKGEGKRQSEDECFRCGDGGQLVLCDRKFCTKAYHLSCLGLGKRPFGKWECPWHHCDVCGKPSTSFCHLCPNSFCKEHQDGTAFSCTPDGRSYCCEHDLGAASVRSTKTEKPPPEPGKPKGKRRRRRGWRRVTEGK
Briefly: biochemical.

Consider `Cc1c(C(=O)NC(CCC2CC2)C(=O)Nc2ccc(C#N)cc2)[nH]c2c1C(=O)CC(C)(C)C2` (centres unmarked) [RK-701], for which, at G9a, the “inhibitory activity against G9a and GLP relative to other methyltransferases” value is “over 1,000 fold”. The A/G in data set [1] (RK-701 10 mg/kg for two weeks, individual animals 1-5, 10 mg/kg) was 1.3 and 1.4 and 1.6 and 1.5; in data set [1] (RK-701 30 mg/kg for two weeks, individual animals 1-5, 30 mg/kg), 1.4 and 1.3; in data set [1] (RK-701 100 mg/kg for two weeks, individual animals 1-5, 100 mg/kg) it was 1.5 and 1.3 and 1.4; in data set [1] (two weeks, 10 mg/kg) it was 1.5 ± 0.1; in data set [1] (two weeks, 30 mg/kg) it was 1.4 ± 0.0; in data set [1] (two weeks, 100 mg/kg), 1.4 ± 0.1.
For the molecule `Nc1ncnc2c1ncn2[C@@H]1O[C@H](CSCC[C@H](N)C(=O)O)[C@@H](O)[C@H]1O` [SAH, S-(5'-Adenosyl)-L-homocysteine, reference compound], the IC50 on NSD2 was found to be 3.29 µM.

The IC50 is the concentration that gives 50% inhibition. A low value points to higher potency.
